Target: FLAG-tagged PDE2A1 (amino acids 2-941) (Homo sapiens (Human), UniProt O00408)
Experiment: IMAP TR-FRET PDE2A phosphodiesterase enzymatic assay
Conditions: not given

Chains of the proteins cited; added tags and fusions are not shown. Residues count along the entry.
UniProt O00408, 2-941: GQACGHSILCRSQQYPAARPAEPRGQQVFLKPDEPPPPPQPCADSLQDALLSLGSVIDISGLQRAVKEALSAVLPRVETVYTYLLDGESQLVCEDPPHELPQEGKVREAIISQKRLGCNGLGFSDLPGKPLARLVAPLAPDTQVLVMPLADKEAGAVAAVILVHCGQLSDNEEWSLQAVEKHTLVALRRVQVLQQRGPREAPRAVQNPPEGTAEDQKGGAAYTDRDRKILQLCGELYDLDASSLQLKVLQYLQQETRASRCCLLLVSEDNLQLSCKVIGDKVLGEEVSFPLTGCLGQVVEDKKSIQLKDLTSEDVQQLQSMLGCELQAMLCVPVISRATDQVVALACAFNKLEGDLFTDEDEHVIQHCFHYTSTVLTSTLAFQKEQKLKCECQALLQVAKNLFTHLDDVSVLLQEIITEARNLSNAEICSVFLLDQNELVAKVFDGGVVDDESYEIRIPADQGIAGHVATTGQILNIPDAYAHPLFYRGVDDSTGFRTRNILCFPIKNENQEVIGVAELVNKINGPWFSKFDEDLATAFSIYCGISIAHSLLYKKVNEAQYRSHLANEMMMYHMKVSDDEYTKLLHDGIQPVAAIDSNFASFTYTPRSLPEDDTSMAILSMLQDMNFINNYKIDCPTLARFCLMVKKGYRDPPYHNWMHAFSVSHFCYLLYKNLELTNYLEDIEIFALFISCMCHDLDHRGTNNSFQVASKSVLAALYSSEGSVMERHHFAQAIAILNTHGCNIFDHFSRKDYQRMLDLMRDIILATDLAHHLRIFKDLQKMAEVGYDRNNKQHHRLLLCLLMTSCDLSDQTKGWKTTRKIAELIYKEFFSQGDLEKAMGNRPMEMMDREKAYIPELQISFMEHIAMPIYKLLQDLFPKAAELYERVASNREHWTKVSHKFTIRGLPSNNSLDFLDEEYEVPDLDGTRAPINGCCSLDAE

`Cc1cc(C2CCCN(Cc3c(F)cc(-c4ccc(Cl)cc4)cc3F)C2)n2ncnc2n1` (centres unmarked) [Example 12, 7-(1-((4′-Chloro-3,5-difluoro-[1,1′-biphenyl]-4-yl)methyl)piperidin-3-yl)-5-methyl-[1,2,4]triazolo[1,5-a]pyrimidine] and `Cc1cc(C2CCCN(Cc3ccc(-c4ccc(Cl)cc4)cc3F)C2)n2ncnc2n1` (centres unmarked) [Example 20, 1-{[4-(4-Chlorophenyl)-2-fluorophenyl]methyl}-3-{5-methyl-[1,2,4]triazolo[1,5-a]pyrimidin-7-yl}piperidine] fall in the same range of IC50: 100 to 1000 nM for the first, 100 to 1000 nM for the second.

Compared with `Cc1cc([C@H]2CN(C(=O)c3ccc(F)c(Br)c3)CCO2)n2ncnc2n1` [Example 251, (2R)-4-[(3-Bromo-4-fluorophenyl)carbonyl]-2-{5-methyl-[1,2,4]triazolo[1,5-a]pyrimidin-7-yl}morpholine], `Cc1cc(C2CN(C(=O)c3ccc(F)c(C)c3)CCO2)n2ncnc2n1` (centres unmarked) [Example 546, 4-(4-Fluoro-3-methylbenzoyl)-2-{5-methyl-[1,2,4]triazolo[1,5-a]pyrimidin-7-yl}morpholine] is lower in IC50: 1000 to 10000 nM for the first, 100 to 1000 nM for the second. The second is the more potent here.

First: Cc1cc(C2CCCN(Cc3cnc(Br)s3)C2)n2ncnc2n1 (centres unmarked) [Example 193, 1-[(2-Bromo-1,3-thiazol-5-yl)methyl]-3-{5-methyl-[1,2,4]triazolo[1,5-a]pyrimidin-7-yl}piperidine]
Second: Cc1cc(C2CCCN(Cc3cncc(F)c3)C2)n2ncnc2n1 (centres unmarked) [Example 192, 3-Fluoro-5-[(3-{5-methyl-[1,2,4]triazolo[1,5-a]pyrimidin-7-yl}piperidin-1-yl)methyl]pyridine]
The IC50 of the first is lower: 100 to 1000 nM for the first, 1000 to 10000 nM for the second.

`Cc1cc(C2CCCN(Cc3cccc(Cl)c3F)C2)n2ncnc2n1` (centres unmarked) [Example 113, 1-[(3-Chloro-2-fluorophenyl)methyl]-3-{5-methyl-[1,2,4]triazolo[1,5-a]pyrimidin-7-yl}piperidine] and `Cc1cc(C2CCCN(Cc3c(Cl)cccc3Cl)C2)n2ncnc2n1` (centres unmarked) [Example 66, 1-[(2,6-Dichlorophenyl)methyl]-3-{5-methyl-[1,2,4]triazolo[1,5-a]pyrimidin-7-yl}piperidine] fall in the same range of IC50: 1000 to 10000 nM for the first, 1000 to 10000 nM for the second.

First: COc1ccc(CN2CCCC(c3cc(C)nc4ncnn34)C2)cc1OC (centres unmarked) [Example 40, 1-[(3,4-Dimethoxyphenyl)methyl]-3-{5-methyl-[1,2,4]triazolo[1,5-a]pyrimidin-7-yl}piperidine]
Second: Cc1cc(C2CCCN(Cc3ccc(C#N)c(F)c3)C2)n2ncnc2n1 (centres unmarked) [Example 183, 2-Fluoro-4-[(3-{5-methyl-[1,2,4]triazolo[1,5-a]pyrimidin-7-yl}piperidin-1-yl)methyl]benzonitrile]
The IC50 of the first is higher: over 10000 nM for the first, 100 to 1000 nM for the second.

First: COc1ccc(F)cc1C(=O)N1CCCC(c2cc(C)nc3ncnn23)C1 (centres unmarked) [Example 460, 1-[(5-Fluoro-2-methoxyphenyl)carbonyl]-3-{5-methyl-[1,2,4]triazolo[1,5-a]pyrimidin-7-yl}piperidine]
Second: COc1cc(C)ccc1C(=O)N1CCCC(c2cc(C)nc3ncnn23)C1 (centres unmarked) [Example 416, 1-[(2-Methoxy-4-methylphenyl)carbonyl]-3-{5-methyl-[1,2,4]triazolo[1,5-a]pyrimidin-7-yl}piperidine]
The IC50 of the first is higher: 1000 to 10000 nM for the first, 100 to 1000 nM for the second.

`Cc1cc(C2CCCN(C(=O)c3ccccc3-c3ccccc3)C2)n2ncnc2n1` (centres unmarked) [Example 427, 3-{5-Methyl-[1,2,4]triazolo[1,5-a]pyrimidin-7-yl}-1-[(2-phenylphenyl)carbonyl]piperidine] and `Cc1cc(C2CCCN(Cc3ccccc3-c3ccccc3)C2)n2ncnc2n1` (centres unmarked) [Example 98, 3-{5-Methyl-[1,2,4]triazolo[1,5-a]pyrimidin-7-yl}-1-[(2-phenylphenyl)methyl]piperidine] fall in the same range of IC50: 1000 to 10000 nM for the first, 1000 to 10000 nM for the second.

First: Cc1cc([C@@H]2CN(C(=O)c3cc(F)c(F)c(Br)c3)CCO2)n2ncnc2n1 [Example 369, (2S)-4-(3-Bromo-4,5-difluorobenzoyl)-2-{5-methyl-[1,2,4]triazolo[1,5-a]pyrimidin-7-yl}morpholine]
Second: Cc1cc([C@H]2CN(C(=O)c3ccc(C4CC4)c(F)c3)CCO2)n2ncnc2n1 [Example 324, (2R)-4-(4-Cyclopropyl-3-fluorobenzoyl)-2-{5-methyl-[1,2,4]triazolo[1,5-a]pyrimidin-7-yl}morpholine]
The IC50 of the first is lower: 100 to 1000 nM for the first, 1000 to 10000 nM for the second.

First: Cc1cc(C2CCCN(C(=O)c3ccccc3Cl)C2)n2ncnc2n1 (centres unmarked) [Example 426, 1-[(2-Chlorophenyl)carbonyl]-3-{5-methyl-[1,2,4]triazolo[1,5-a]pyrimidin-7-yl}piperidine]
Second: Cc1ccc(C(=O)N2CCCC(c3cc(C)nc4ncnn34)C2)c(F)c1 (centres unmarked) [Example 418, 1-[(2-Fluoro-4-methylphenyl)carbonyl]-3-{5-methyl-[1,2,4]triazolo[1,5-a]pyrimidin-7-yl}piperidine]
The IC50 of the first is higher: over 10000 nM for the first, 100 to 1000 nM for the second.

First: CCOc1cccc(C(=O)N2CC(c3cc(C)nc4ncnn34)CC(F)(F)C2)c1 (centres unmarked) [Example 248, 1-[(3-Ethoxyphenyl)carbonyl]-3,3-difluoro-5-{5-methyl-[1,2,4]triazolo[1,5-a]pyrimidin-7-yl}piperidine]
Second: Cc1cc(C2CN(C(=O)c3ccc(C(F)(F)F)nc3C)CC(F)(F)C2)n2ncnc2n1 (centres unmarked) [Example 272, 3-(3,3-Difluoro-5-{5-methyl-[1,2,4]triazolo[1,5-a]pyrimidin-7-yl}piperidine-1-carbonyl)-2-methyl-6-(trifluoromethyl)pyridine]
The IC50 of the first is lower: 100 to 1000 nM for the first, 1000 to 10000 nM for the second. The first is the more potent here.

First: Cc1cc(C2CCCN(Cc3cc(F)c(F)c(Br)c3)C2)n2ncnc2n1 (centres unmarked) [Example 204, 1-[(3-Bromo-4,5-difluorophenyl)methyl]-3-{5-methyl-[1,2,4]triazolo[1,5-a]pyrimidin-7-yl}piperidine]
Second: Cc1cc(C2CCCN(Cc3cc(F)ccc3F)C2)n2ncnc2n1 (centres unmarked) [Example 105, 1-[(2,5-Difluorophenyl)methyl]-3-{5-methyl-[1,2,4]triazolo[1,5-a]pyrimidin-7-yl}piperidine]
The IC50 of the first is lower: 1000 to 10000 nM for the first, over 10000 nM for the second. The first is the more potent here.

First: Cc1cc(C2CCCN(Cc3csc4ccccc34)C2)n2ncnc2n1 (centres unmarked) [Example 116, 1-(1-Benzothiophen-3-ylmethyl)-3-{5-methyl-[1,2,4]triazolo[1,5-a]pyrimidin-7-yl}piperidine]
Second: Cc1cc(C2CCCN(Cc3ccccc3C)C2)n2ncnc2n1 (centres unmarked) [Example 89, 3-{5-Methyl-[1,2,4]triazolo[1,5-a]pyrimidin-7-yl}-1-[(2-methylphenyl)methyl]piperidine]
The IC50 of the first is lower: 1000 to 10000 nM for the first, over 10000 nM for the second. The first is the more potent here.

First: Cc1cc(C2CCCN(Cc3cccc(-c4ccncc4)c3)C2)n2ncnc2n1 (centres unmarked) [Example 39, 4-{3-[(3-{5-Methyl-[1,2,4]triazolo[1,5-a]pyrimidin-7-yl}piperidin-1-yl)methyl]phenyl}pyridine]
Second: Cc1cc(C2CCCN(Cc3cc4ccccc4o3)C2)n2ncnc2n1 (centres unmarked) [Example 104, 1-(1-Benzofuran-2-ylmethyl)-3-{5-methyl-[1,2,4]triazolo[1,5-a]pyrimidin-7-yl}piperidine]
The IC50 of the first is higher: 1000 to 10000 nM for the first, 100 to 1000 nM for the second.

Compared with `Cc1cc([C@@H]2CN(C(=O)c3ccc(F)c(C4CC4)c3)CCO2)n2ncnc2n1` [Example 318, (2S)-4-(3-Cyclopropyl-4-fluorobenzoyl)-2-{5-methyl-[1,2,4]triazolo[1,5-a]pyrimidin-7-yl}morpholine], `Cc1cc(C2CN(C(=O)c3ccc(C#N)cc3)CCO2)n2ncnc2n1` (centres unmarked) [Example 223, 4-[(2-{5-Methyl-[1,2,4]triazolo[1,5-a]pyrimidin-7-yl}morpholin-4-yl)carbonyl]benzonitrile] is higher in IC50: 100 to 1000 nM for the first, over 10000 nM for the second.

First: Cc1cc(C2CCCN(Cc3sc(N(C)C)nc3C)C2)n2ncnc2n1 (centres unmarked) [Example 206, N,N,4-Trimethyl-5-[(3-{5-methyl-[1,2,4]triazolo[1,5-a]pyrimidin-7-yl}piperidin-1-yl)methyl]-1,3-thiazol-2-amine]
Second: Cc1cc(C2CCCN(Cc3c[nH]c4ccc(F)cc34)C2)n2ncnc2n1 (centres unmarked) [Example 108, 5-Fluoro-3-[(3-{5-methyl-[1,2,4]triazolo[1,5-a]pyrimidin-7-yl}piperidin-1-yl)methyl]-1H-indole]
The IC50 of the first is lower: 1000 to 10000 nM for the first, over 10000 nM for the second.

For `Cc1cc(C2CCCN(C(=O)c3cn4ccccc4n3)C2)n2ncnc2n1` (centres unmarked) [Example 408, 1-({Imidazo[1,2-a]pyridin-2-yl}carbonyl)-3-{5-methyl-[1,2,4]triazolo[1,5-a]pyrimidin-7-yl}piperidine], the IC50 was 100 to 1000 nM.

Same assay, conditions: IMAP TR-FRET, 200 nM FAM-cAMP substrate, 11-point half-log dose-response

For `Cc1cc([C@@H]2CN(C(=O)c3cc(Cl)c(Cl)c(Cl)c3)CCO2)n2ncnc2n1` [Example 370, (2S)-2-{5-Methyl-[1,2,4]triazolo[1,5-a]pyrimidin-7-yl}-4-(3,4,5-trichlorobenzoyl)morpholine], the “PDE2 (pIC50)” value was over 7.
`Cc1cc([C@@H]2CN(C(=O)c3cc(C)c(F)c(C)c3)CC(F)(F)C2)n2ncnc2n1` [Example 307, (5S)-3,3-Difluoro-1-(4-fluoro-3,5-dimethylbenzoyl)-5-{5-methyl-[1,2,4]triazolo[1,5-a]pyrimidin-7-yl}piperidine] was tested, and the “PDE2 (pIC50)” value was over 7.
With `Cc1cc([C@@H]2CN(C(=O)c3ccc(C(F)(F)F)c(Br)c3)CCO2)n2ncnc2n1` [Example 368, (2S)-4-[3-Bromo-4-(trifluoromethyl)benzoyl]-2-{5-methyl-[1,2,4]triazolo[1,5-a]pyrimidin-7-yl}morpholine] the “PDE2 (pIC50)” value was over 7.
`Cc1cc(C2CCCN(Cc3ccc(C(F)(F)F)c(F)c3)C2)n2ncnc2n1` (centres unmarked) [Example 178, 1-{[3-Fluoro-4-(trifluoromethyl)phenyl]methyl}-3-{5-methyl-[1,2,4]triazolo[1,5-a]pyrimidin-7-yl}piperidine] was tested, and the “PDE2 (pIC50)” value was over 7.
With `Cc1cc(C2CN(C(=O)c3ccc4c(c3)OC(F)(F)O4)CC(F)(F)C2)n2ncnc2n1` (centres unmarked) [Example 530, 1-(2,2-Difluoro-2H-1,3-benzodioxole-5-carbonyl)-3,3-difluoro-5-{5-methyl-[1,2,4]triazolo[1,5-a]pyrimidin-7-yl}piperidine] the “PDE2 (pIC50)” value was over 7.
In the case of `COc1cc2ccccc2cc1C(=O)N1CCCC(c2cc(C)nc3ncnn23)C1` (centres unmarked) [Example 449, 1-[(3-Methoxynaphthalen-2-yl)carbonyl]-3-{5-methyl-[1,2,4]triazolo[1,5-a]pyrimidin-7-yl}piperidine], the “PDE2 (pIC50)” value is reported as over 7.
For `Cc1cc(C2CN(C(=O)c3cc(Br)cc(Br)c3)CCO2)n2ncnc2n1` (centres unmarked) [Example 257, 4-[(3,5-Dibromophenyl)carbonyl]-2-{5-methyl-[1,2,4]triazolo[1,5-a]pyrimidin-7-yl}morpholine], the “PDE2 (pIC50)” value was over 7.

Reference: patent US11186582B2, “Substituted [1,2,4]triazolo[1,5-a]pyrimidin-7-yl compounds as PDE2 inhibitors” (DART NEUROSCIENCE (CAYMAN) LTD., priority 2014, dated 2021)
